Where “and” joins values, the source holds several entries; their conditions need not be identical. Equal entries are not always repeated. The list shows a part of the results, in another mix than the full data. Calls of active or inactive are those of the source. No stated cut-off is given here; in the data, active means activation above about 15%; inactive means the rest.

Consider 100 compounds from PubChem BioAssay AID602248 (The Scripps Research Institute Molecular Screening Center, 2012).

A short description of the experiment: counter-screen for M1 agonists: effect in parental CHO-K1 cells (AID 602248).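 Further: untransfected CHO-K1 host cells lacking M1 receptor as counterscreen.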 The conditions noted are these: Fluo-8 calcium fluorescence, at 3 µM, hits give high values, scaled to maximal ATP response, vehicle zero.
With `CN(C)C(=O)c1cc([N+](=O)[O-])cc2c1-c1c(cc([N+](=O)[O-])cc1[N+](=O)[O-])C2=O`, the activation was inactive: 1.54%. Consider `O=[N+]([O-])c1ccc2c(c1)nnn2O`, for which the activation was inactive: 0.85%. In the case of `NC(=O)Nc1ccc([As](=O)(O)O)cc1`, the activation was inactive: 0.38%. As for `COc1ccc(CC(C)NCC(O)c2ccc(O)c(NC=O)c2)cc1` (stereo not given), the activation was inactive: 0.22% and inactive: -0.06%. The result for `CCCC1OP(=O)(Nc2ccccc2)OCC1CC` (stereo not given) reads inactive: 3.31%; that for `O=C(/C=C/c1ccccc1)OC1CN2CCC1CC2` (stereo not given), inactive: 6.57%.

In the case of `Cc1ccc(C(=O)OC2CN3CCC2CC3)cc1` (stereo not given), the activation is inactive: 1.24%. The figure for `CC1CCC(C(C)C)C(OP(=O)(Nc2ccccn2)c2ccccc2)C1` (stereo not given) is inactive: 5.19%; for `Cc1nn(-c2ccccc2)c2c1P(=O)(N1CCOCC1)N(C)C(c1ccccc1)=N2` (stereo not given) it is inactive: 0.17%.

`Nc1cccc([As](=O)(O)c2ccccc2)c1`: the activation is inactive: -0.05%. The result for `NS(=O)(=O)c1cccc(NC(=O)COC(=O)C(O)(c2ccccc2)c2ccccc2)c1` reads inactive: 0.52%; that for `O=P1(Nc2ccc(Br)cn2)COc2ccccc2OC1`, inactive: 1.87%; that for `O=[As](O)(c1cccs1)c1cccs1`, inactive: -0.53%.

For the compound `Cc1ccc(OCC(=O)OC2CN3CCC2CC3)cc1` (stereo not given), the activation was inactive: 1.51%.

As to `Cc1ccc(S(=O)(=O)N(CCCN)CCCc2c(C)nc(N)[nH]c2=O)cc1`, the activation is inactive: 0.26%. For `O=P1(Nc2ncccn2)COc2ccccc2OC1`, the activation is inactive: 0.52%. The figure for `CC(C)(C)C(=O)NC(Sc1ncccn1)C(Cl)(Cl)Cl` (stereo not given) is inactive: 0.22%; for `Clc1n[nH]nc1-c1nn[nH][15n]1` it is inactive: 0.02%; for `O=P1(N(CCCl)CCCl)NCCC(C(F)(F)F)O1` (stereo not given) it is inactive: 0.35%. The result for `CCOP(=O)(NC(=NC(C)c1ccccc1)NC(C)c1ccccc1)OCC` (stereo not given) reads inactive: -0.38%; that for `CCC1=CC2Cc3nc4ccc(Cl)cc4c(N)c3C(C1)C2` (stereo not given), inactive: 2.09%. The result for `O=P1(Nc2ccccn2)COc2ccccc2OC1` reads inactive: -0.29%.

In the case of `CN(CCCl)Cc1cc(Cl)c(NC2=NCCN2)c(Cl)c1`, the activation is inactive: 0.12%. For `CCOP(=O)(Nc1ccc(C)cn1)OCC`, the activation is inactive: 1.96%. For `CN(C(=O)Cc1ccc(Cl)c(Cl)c1)[C@@H]1CCCC[C@H]1N1CCCC1`, the activation was inactive: -0.02%. For the compound `CC(C)/C=N\N=C(\N)N[N+](=O)[O-]`, the activation is inactive: 0.4%.

In the case of `CC1(CBr)Cn2c(nc3ccccc3c2=O)S1` (stereo not given), the activation is inactive: 4.71%. The result for `COc1ccccc1CNC(=O)COC(=O)C(O)(c1ccccc1)c1ccccc1` reads inactive: 0.36%; that for `c1nnnn1CCn1cnnn1`, inactive: 0.28%; that for `O=P(Nc1nccs1)(c1ccccc1)c1ccccc1`, inactive: 0.28%. The figure for `CC(C)C(=O)NC(Sc1ccccc1)C(Cl)(Cl)Cl` (stereo not given) is inactive: -0.72%; for `COc1ccc(C[C@H](C)NC[C@@H](O)c2ccc(O)c(NC=O)c2)cc1` it is inactive: 0.06%; for `C[C@H]1OP(=O)(Oc2ccccc2)[C@H](O)[C@H](O)[C@H]1N=[N+]=[N-]` (stereo not given in full) it is inactive: 0.26%. The figure for `O=P(Nc1nc2ccccc2s1)(c1ccccc1)c1ccccc1` is inactive: 1.45%; for `O=P(Nc1ccccn1)(c1ccc(Br)cc1)c1ccc(Br)cc1` it is inactive: -0.17%. As to `Nc1ccc(CCCCOc2ccccc2)cc1`, the activation was inactive: 2.11%. For `COc1ccc(N)c([N+](=O)[O-])c1[N+](=O)[O-]`, the activation is inactive: 0.77%. The result for `O=C(OC1CN2CCC1CC2)c1cccc(Cl)c1` (stereo not given) reads inactive: 1.15%; that for `Nc1ccc([As](=O)(O)c2ccc([N+](=O)[O-])cc2)cc1`, inactive: -0.09%; that for `C(Cc1nn[nH]n1)Cc1nn[nH]n1`, inactive: 0.47%. `O=[As](O)(c1ccccc1)c1ccc(O)cc1`: the activation was inactive: -0.22%. `O=[N+]([O-])c1ncn(CCn2cnc([N+](=O)[O-])n2)n1`: the activation was inactive: -0.1%. The result for `CC(=O)NC(SC(=S)N(C)C)C(Cl)(Cl)Cl` (stereo not given) reads inactive: 0.36%; that for `O=[N+]([O-])c1ccc(O)c(/C=N/Nc2ccc([N+](=O)[O-])cc2[N+](=O)[O-])c1`, inactive: 1.16%; that for `CC1C(=O)OC2CCN3CC4OC4(COC(=O)C(C)(O)C1(C)O)C23` (stereo not given), inactive: 1.09%. Regarding `O=P1(N(CCCl)CCCl)OCCC2CCCCN21` (stereo not given), the activation was inactive: -0.26%. The result for `Cc1ccc(NP(=O)(Oc2cccc(C)c2)Oc2cccc(C)c2)nc1` reads inactive: 1.02%; that for `C=C1C(=O)OC2CCN3CC=C(COC(=O)C(C)(O)C4(CO4)C1C)C23` (stereo not given), inactive: 0.15%. The result for `c1ccc(-c2nn[nH]n2)c(-c2nn[nH]n2)c1` reads inactive: 0.68%. For the compound `O=C(NC1CCS(=O)(=O)C1)NP(=S)(Oc1ccccc1)Oc1ccccc1` (stereo not given), the activation was inactive: -0.21%. The figure for `CCNC(=S)/N=C(\N)N[N+](=O)[O-]` is inactive: 0.7%; for `CN(C)C(=O)Oc1noc2ccccc12` it is inactive: 0.09%; for `O=c1c2cc([N+](=O)[O-])ccc2[nH]c2c([N+](=O)[O-])cc([N+](=O)[O-])cc12` it is inactive: 6.88%. Consider `Cc1ccccc1OP(=O)(Nc1ccccn1)Oc1ccccc1C`, for which the activation was inactive: 6.43%. The figure for `CC(NC(=O)COC(=O)C(O)(c1ccccc1)c1ccccc1)c1ccccc1` (stereo not given) is inactive: 4.34%. For the compound `CCN(C(=O)COC(=O)C(O)(c1ccccc1)c1ccccc1)c1c(N)n(Cc2ccccc2)c(=O)[nH]c1=O`, the activation was inactive: 0.02%. The figure for `Clc1ccc(N2CCN(Cc3c[nH]c4ncccc34)CC2)cc1` is inactive: 2.1%; for `CCC(=O)N1C2C3N(C(=O)CC)C1C1N(C(=O)CC)C(C(N1C(=O)CC)N3C(=O)CC)N2C(=O)CC` it is inactive: 0.66%; for `O=C(OC1CN2CCC1CC2)c1ccccc1` (stereo not given) it is inactive: 1.62%. The result for `Cc1ccc(OP(=O)(Nc2ccccn2)Oc2ccc(C)cc2)cc1` reads inactive: 6.3%; that for `CC(=O)NC(SC(=S)N(CC(C)C)CC(C)C)C(Cl)(Cl)Cl` (stereo not given), inactive: 0.25%. As to `COC(=O)c1cc2c(s1)N=C(c1ccccc1)N(C)P2(=O)N1CCOCC1` (stereo not given), the activation is inactive: 0.39%.

On to `CC(C)(C)C(=O)NC(Sc1ccccc1)C(Cl)(Cl)Cl` (stereo not given), for which the activation is inactive: -0.04%.

Turning to `CCc1cc(O)c([N+](=O)[O-])c(C)c1[N+](=O)[O-]`, the activation was inactive: 2.61%.

In the case of `CCOc1ccc(C2=NCC(CBr)S2)cc1` (stereo not given), the activation is inactive: 0.6%. In the case of `O=P1(Nc2nc3ccc(Cl)cc3s2)COc2ccccc2O1` (stereo not given), the activation was inactive: 0.18%. The figure for `CC(=O)Nc1ccc(Oc2c([N+](=O)[O-])cc([N+](=O)[O-])cc2[N+](=O)[O-])cc1` is inactive: 1.35%; for `CC(=O)Nc1ccc([As](=O)(O)O)c(O)c1` it is inactive: 2.48%; for `C[C@@H]1C=CCP(=O)(Oc2ccccc2)O1` (stereo not given in full) it is inactive: 0.43%.

Take `C[C@H]1OP(=O)(Oc2ccccc2)C[C@@H]2O[C@@H]21` (stereo not given in full): the activation was inactive: 0.09%. `CCN(CC)CCOC(=O)C(O)(c1ccccc1)c1ccccc1`: the activation was inactive: 0.01%. Take `Cc1ccccc1CN(C)C(=O)COC(=O)C(O)(c1ccccc1)c1ccccc1`: the activation was inactive: 1.35%. The figure for `CC1C(=O)OC2CCN3CC=C(COC(=O)C(C)(O)C1(C)O)C23` (stereo not given) is inactive: -0.2%; for `COC(=O)C1(C)COP(=O)(NCc2ccccc2)OC1` (stereo not given) it is inactive: 0.08%. As to `N#C/C(=C\c1ccc(N(CCBr)CCBr)cc1)C(N)=O`, the activation is inactive: 0.86%. In the case of `CC(=O)c1ccc(N2CC2c2ccncc2)cc1` (stereo not given), the activation is inactive: 0.6%. Regarding `Clc1ccc(Cl)c(NC2=NCC(CBr)S2)c1` (stereo not given), the activation is inactive: 0%. For the compound `CN1CCCC(OC(=O)C(c2ccccc2)c2ccccc2)C1` (stereo not given), the activation was inactive: -0.05%. For `Cc1ccc(OP(=O)(Nc2nccs2)Oc2ccc(C)cc2)cc1`, the activation is inactive: 2.01%. For `CC(C)[C@H]1C(=O)O[C@@H]2CCN3CC=C(COC(=O)[C@](C)(O)[C@]1(C)O)[C@H]23`, the activation is inactive: 1.43%.

For `COc1ccccc1OP(=O)(Nc1ccc(C)cn1)Oc1ccccc1OC`, the activation was inactive: 1.19%. Regarding `Cc1ccc(N/C(=N/P(=O)(N2CCOCC2)N2CCOCC2)N2CCOCC2)cc1`, the activation was inactive: -0.41%. With `CN(C(=O)Cc1ccc(Cl)c(Cl)c1)[C@H]1CCCC[C@H]1N1CCCC1`, the activation is inactive: 0.43%.

For the compound `NC(=O)c1cc([N+](=O)[O-])cc([N+](=O)[O-])c1N`, the activation is inactive: 0.63%. The result for `O=[N+]([O-])C1C(O)C(O)C([N+](=O)[O-])C(O)C1O` (stereo not given) reads inactive: 1.26%; that for `O=C(NC(Sc1ccncn1)C(Cl)(Cl)Cl)c1ccccc1` (stereo not given), inactive: 0.71%; that for `Oc1ccccc1CNc1ccccn1`, inactive: 0.97%. As for `CC(C)CC(=O)NC(Sc1ccc(Cl)cc1)C(Cl)(Cl)Cl` (stereo not given), the activation is inactive: -0.77%. On to `Nc1cc(N)c2nonc2c1[N+](=O)[O-]`, for which the activation was inactive: 0.35%. As for `CN(C(=O)Cc1ccc(Cl)c(Cl)c1)[C@H]1CCCC[C@@H]1N1CCCC1`, the activation was inactive: 0.56%. The result for `Cc1ccc(NP(=O)(Oc2ccccc2F)Oc2ccccc2F)nc1` reads inactive: 4.87%; that for `CCOP(=O)(Nc1ccccc1)OCC`, inactive: -0.14%. The result for `Cc1cc(SC(NC(=O)c2ccc(F)cc2)C(Cl)(Cl)Cl)ncn1` (stereo not given) reads inactive: 0.59%; that for `CN(C)P(=O)(N(C)C)n1c(Nc2ccccc2)nnc1-c1ccccc1`, inactive: 0.03%; that for `O=P(Nc1nc2ccc(Cl)cc2s1)(c1ccccc1)c1ccccc1`, inactive: 5.07%. The result for `CC(=O)O[C@]1(C)C(=O)OC/C2=C/CN(C)CCC(OC(=O)[C@@](O)(C(C)O)C[C@H]1C)C2=O` (stereo not given in full) reads inactive: 0.22%; that for `CCCC1OP(N)(=O)OCC1CC` (stereo not given), inactive: 1.3%. As to `O=C(O)c1ccccc1[As](=O)(O)O`, the activation was inactive: -0.12%.

With `CC(=O)Nc1ccc([As](=O)(O)O)cc1`, the activation is inactive: 0.46%. With `Nc1cccc2ccc([As](=O)(O)O)cc12`, the activation is inactive: -0.08%.
